Data on eight molecules can be found in ChEMBL document CHEMBL1932959, “5-HT₂c receptor selectivity and structure-activity relationship of N-methyl-N-(1-methylpiperidin-4-yl)benzenesulfonamide analogs” (Bioorg Med Chem Lett, 2012).

The subject of the experiment is 5-HT2A/5-HT2C selectivity (Homo sapiens). Description: Selectivity ratio of IC50 for human 5HT2A receptor to IC50 for human 5HT2C receptor.

Consider `CN1CCC(N(C)S(=O)(=O)c2cccc(F)c2)CC1`, for which the Ratio IC50 was 0.77.
With `CN1CCC(N(C)S(=O)(=O)c2ccc(C(F)(F)F)cc2)CC1` the figure was 0.3.
Take `CCCc1ccc(S(=O)(=O)N(C)C2CCN(C)CC2)cc1`: the Ratio IC50 came to 0.7.
In the case of `CN1CCC(N(C)S(=O)(=O)c2ccccc2Cl)CC1`, the Ratio IC50 was found to be 2.7.
Under `CN1CCC(N(C)S(=O)(=O)c2ccc(OC(F)(F)F)cc2)CC1` stands less than 0.25; under `CN1CCC(N(C)S(=O)(=O)c2ccc(I)cc2)CC1`, 0.21.
Under `Cc1ccc(S(=O)(=O)N(C)C2CCN(C)CC2)cc1` stands 11.9; under `CCCCOc1ccc(S(=O)(=O)N(C)C2CCN(C)CC2)cc1`, 1.4.
